# Antibody variant affinities, Ab-95 light chain, assay 2

Source: Engelhart et al. 2022 (doi:10.1038/s41597-022-01779-4), MIT Lincoln Laboratory and A-Alpha Bio; data file from the FLAb repository.

Target: peptide PDVDLGDISGINAS, taken from heptad repeat 2 (HR2) of SARS-CoV-2 spike.

Parent: Ab-95, a human scFv built as VH, the linker GGGGSGGGGSGGGGS, VL. Only the CDRs of the light chain vary.
VH: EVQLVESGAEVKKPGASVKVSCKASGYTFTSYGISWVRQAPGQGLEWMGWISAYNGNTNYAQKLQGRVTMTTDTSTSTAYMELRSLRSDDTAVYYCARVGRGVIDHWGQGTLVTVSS
VL: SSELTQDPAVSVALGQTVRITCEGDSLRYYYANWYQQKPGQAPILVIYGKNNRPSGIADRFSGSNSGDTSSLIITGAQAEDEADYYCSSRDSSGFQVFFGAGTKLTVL

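Variants in AAYL52 differ from the parent at up to three CDR positions; double and triple changes were sampled at random. AlphaSeq pools MATa yeast showing the antibodies with MATalpha yeast showing the peptide. The frequency of each diploid, read from paired DNA barcodes, reflects how well the two displayed proteins bind. Read counts were normalised to the haploid input and turned into Kd by a linear fit to BCL2-family pairs of known affinity, for each replicate. The assay was run in three technical replicates.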

Substitutions are numbered in sequence along the VL above, starting at 1 (not Kabat). This list gathers variants with a substitution at G24 (VL, numbered from residue 1). The Kd shown is the geometric mean over detected replicates; a lower Kd is a better binder. "nd" marks a missing value. The strain was present, yet no cells mated with the target were sequenced in any replicate, which points to weak or no binding. As a blank, each scFv also met three strains without target: over library AAYL52, 28% of these pairings were detected, typically at 8.2 µM and seldom below 800 nM. In this assay the parent's reference entry averaged 200 nM; its copy inside this library read 180 nM.

* G24N S26L D91A = 13 µM (1 of 3 replicates)
* G24N S26K S93M = 1.3 µM (1 of 3 replicates)
* G24P Y29W D91M = 680 nM (3 of 3 replicates)
* G24P R53M S92V = nd (0 of 3 replicates)
* G24F N51W D91Q = 6.6 µM (1 of 3 replicates)
* G24A S26P S88Y = 4.5 µM (1 of 3 replicates)
* G24L L27E R28Q = 1.5 µM (3 of 3 replicates)
* G24T S55L S89C = 290 nM (1 of 3 replicates)
* G24E R53P S88K = 8.1 µM (1 of 3 replicates)
* G24D R90T G94S = 25 µM (2 of 3 replicates)
* G24K R53W R90V = nd (0 of 3 replicates)
* G24W Y30A D91H = 290 nM (3 of 3 replicates)
* G24R G49R S89P = nd (0 of 3 replicates)
* G24Q D25A S88A = 310 µM (1 of 3 replicates)
* G24I D25W D91V = 9.1 µM (2 of 3 replicates)
* G24M N52D P54T = 8.8 µM (2 of 3 replicates)
* G24H D25I K50T = 2.0 µM (3 of 3 replicates)
* G24Y Y30W A32K = nd (0 of 3 replicates)
* G24P Y29S Y30N = 580 nM (3 of 3 replicates)
* G24H S88T = 810 nM (3 of 3 replicates)
* G24R N51D P54L = 16 µM (1 of 3 replicates)
* G24T R90A D91I = 24 µM (2 of 3 replicates)
* G24P S55L R90M = 93 µM (2 of 3 replicates)
* G24N R28S N33R = 800 nM (1 of 3 replicates)
* G24P Y29H G49S = 3.0 µM (2 of 3 replicates)
* G24K N51C Q96H = 2.8 µM (1 of 3 replicates)
* G24A D25R Q96P = 10 µM (3 of 3 replicates)
* G24N S89T D91W = nd (0 of 3 replicates)
* G24R L27C N52K = nd (0 of 3 replicates)
* G24W S26Q S89T = 4.3 µM (2 of 3 replicates)
* G24C D25M = 160 nM (3 of 3 replicates)
* G24E S26A V97Q = 3.2 µM (2 of 3 replicates)
* G24Q D25G S93M = 3.3 µM (2 of 3 replicates)
* G24K G94R V97Q = 3.8 µM (1 of 3 replicates)

3 of these entries, quoted again:

* G24N S89T D91W -> nd (0 of 3 replicates)
* G24P Y29H G49S -> 3.0 µM (2 of 3 replicates)
* G24T R90A D91I -> 24 µM (2 of 3 replicates)